# Only a part is listed here, and it is no random draw. Results filed as inconclusive are left out. Activity calls are given as the source filed them. Calls come from the whole dose curve; as a rule, active = well fitted inhibition curve with a large enough effect in the polarisation, with a control signal flat (not every such curve was filed as active); inconclusive = small, poorly fitted or top-dose-only effect, or effect the other way, or a change in a side signal; inactive = no such curve, though single readings can be large or run the other way; the % refers to the polarisation.
# Amino acid sequences for entries named in this document (tags omitted).
# UniProt Q13526, whole entry: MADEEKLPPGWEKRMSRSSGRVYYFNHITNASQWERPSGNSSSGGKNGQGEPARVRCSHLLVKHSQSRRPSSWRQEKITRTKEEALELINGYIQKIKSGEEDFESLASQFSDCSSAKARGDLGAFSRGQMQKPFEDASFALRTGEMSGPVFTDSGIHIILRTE
# Biological target: Peptidyl-prolyl cis-trans isomerase NIMA-interacting 1 (Homo sapiens) (UniProt Q13526)
# Assay: qHTS Assay to Find Inhibitors of Pin1
# Settings: Pin1 FP peptide displacement, HiFluor488, 10 min; at 115 µM (top of the series)
# % is set by controls: 0 for no effect and ±100 for the full control effect.
row,Structure (SMILES),"activity, negative = inhibition"
1,O=C(NCC1(N2CCCCC2)CCCCC1)c1cccc(C(F)(F)F)c1,inactive: -10%
2,CCCOc1cccc(C(=O)NCC2(N3CCOCC3)CCCCC2)c1,inactive: 0.77%
3,O=[N+]([O-])c1cc([N+](=O)[O-])c(NCC2CCS(=O)(=O)C2)c([N+](=O)[O-])c1 (centres undefined),inactive: -5.23%
4,CC(C)c1ccc(C(=O)NCC2(N3CCOCC3)CCCCC2)cc1,inactive: -5.88%
5,COc1ccc(NC2CCN(C(=O)OC(C)(C)C)CC2)cc1,inactive: -3.51%
6,CN1CCN(CCOC(=O)C(O)(c2ccccc2)c2ccccc2)CC1,inactive: -0.246%
7,O=C(NCC1(N2CCOCC2)CCCCC1)c1cc(=O)[nH]c2ccccc12,inactive: -1.67%
8,COc1cc(C(=O)NCC2(N3CCCCC3)CCCCC2)ccc1OC(F)F,inactive: -3.83%
9,O=C(NCC1(N2CCCCC2)CCCCC1)c1ccc(OC(F)F)cc1,inactive: -5.05%
10,O=C(NCC1(N2CCCCC2)CCCCC1)c1cccc([N+](=O)[O-])c1,inactive: 4.52%
11,CCOc1ccc(C(=O)NCC2(N3CCOCC3)CCCCC2)cc1,inactive: -0.794%
12,CSc1ccc(C(=O)NCC2(N3CCOCC3)CCCCC2)cc1,inactive: 0.103%
13,N#CC1(Nc2ccccc2)CCN(CCc2ccccc2)CC1,inactive: -2.55%
14,CCN1CCC(Nc2ccc(Cl)cc2)CC1,inactive: 3.7%
15,O=C(NCC1(N2CCCCC2)CCCCC1)c1cncc(Br)c1,inactive: -0.206%
16,CN1CCC(Nc2cccc(F)c2)CC1,inactive: -5.98%
17,O=C(OC1CN2CCC1CC2)c1ccc([N+](=O)[O-])cc1 (centres undefined),inactive: -3.19%
18,CCCOc1ccc(C(=O)NCC2(N(C)C)CCCCC2)cc1OC,inactive: -2.24%
19,O=C(NCC1(N2CCOCC2)CCCCC1)c1ccccc1Br,inactive: -0.028%
20,CCCCOc1ccccc1C(=O)NCC1(N2CCOCC2)CCCCC1,inactive: 0.169%
21,CN(C)c1cccc(C(=O)NCC2(N3CCCCC3)CCCCC2)c1,inactive: -10.7%
22,O=[N+]([O-])c1cc([N+](=O)[O-])c(OC2CCCCC2O)c([N+](=O)[O-])c1 (centres undefined),inactive: -0.158%
23,COc1ccc(CN(CCCl)CCCl)cc1Cl,inactive: -0.0571%

row,Structure (SMILES),"activity, negative = inhibition"
1,CC(C)c1ccc(NC2CCN(C(=O)OC(C)(C)C)CC2)cc1,inactive: 3.19%
2,COc1cc(OC)c(C(=O)NCC2(N(C)C)CCCCC2)cc1OC,inactive: -11.5%
3,O=C(NCC1(N2CCOCC2)CCCCC1)c1cc2ccccc2o1,inactive: 2.12%
4,Cc1cc(C)cc(N(C(=O)c2ccccc2)C2CCN(C(=O)OC(C)(C)C)CC2)c1,inactive: -2.98%
5,O=C(NCC1(N2CCCCC2)CCCCC1)c1ccc(Cl)nc1,inactive: -2.22%
6,CCOC(=O)N1CCC(Nc2ccc(OC)cc2)CC1,inactive: -0.634%
7,COc1ccc(Cl)cc1C(=O)NCC1(N2CCOCC2)CCCCC1,inactive: 2.26%
8,O=C(OC1CN2CCC1CC2)C1c2ccccc2Oc2ccccc21 (centres undefined),inactive: -12.9%
9,O=C(NCC1(N2CCCCC2)CCCCC1)c1ccc(Cl)s1,inactive: -0.0904%
10,N#CC1(Nc2ccccc2)CCN(Cc2ccccc2)CC1,inactive: 5.7%
11,O=C(NCC1(N2CCCCC2)CCCCC1)c1cccs1,inactive: 6.81%
12,O=C(NCC1(N2CCCCC2)CCCCC1)c1ccc(=O)[nH]c1,inactive: -1.64%
13,CC(C)(C)OC(=O)N1CCC(N(C(=O)c2ccccc2)c2ccc(F)cc2)CC1,inactive: 4.5%
14,COc1ccc(C(=O)NCC2(N3CCCCC3)CCCCC2)c(OC)c1OC,inactive: 11.7%
15,COc1ccc(C(=O)NCC2(N3CCCCC3)CCCCC2)cc1,inactive: 4.88%
16,Cc1cccc(NC2(C#N)CCN(Cc3ccccc3)CC2)c1,inactive: -1.39%
17,CSc1ccccc1C(=O)NCC1(N2CCCCC2)CCCCC1,inactive: 0.528%
18,COc1cc(C(=O)NCC2(N(C)C)CCCCC2)ccc1OC(F)F,inactive: 2.61%
19,CCOC(=O)N1CCC(Nc2cccc(C)c2)CC1,inactive: 8.45%
20,CCOc1ccc(C)cc1CN(CCCl)CCCl,inactive: 0.476%
21,O=C1CCN(Cc2ccccc2)CC1,inactive: 10.6%
22,O=C(NCC1(N2CCOCC2)CCCCC1)c1ccc(Cl)cc1,inactive: -6.14%
23,CCOC(=O)N1CCC(Nc2ccc(F)cc2)CC1,inactive: 7.04%

row,Structure (SMILES),"activity, negative = inhibition"
1,COc1ccc(NC2CCN(CCc3ccccc3)CC2)c(OC)c1,inactive: 1.84%
2,O=C(NCC1(N2CCCCC2)CCCCC1)c1ccc(F)cc1,inactive: 7.46%
3,CCCCOc1ccc(C(=O)NCC2(N3CCOCC3)CCCCC2)cc1,inactive: -2.48%
4,COc1ccccc1C(=O)NCC1(N2CCOCC2)CCCCC1,inactive: -6.88%
5,CCN1CCC(Nc2cccc(F)c2)CC1,inactive: -12.4%
6,Cc1ccccc1NC1(C#N)CCN(Cc2ccccc2)CC1,inactive: 0.643%
7,Cn1c(=O)[nH]cc(N(CCCl)CCCl)c1=O,inactive: -3.69%
8,CN(C)c1ccc(C(=O)NCC2(N3CCCCC3)CCCCC2)cc1,inactive: -0.908%
9,CC(C)(C)c1ccc(C(=O)NCC2(N3CCOCC3)CCCCC2)cc1,inactive: -15.4%
10,O=C(NCC1(N2CCCCC2)CCCCC1)c1ccco1,inactive: -4.51%
11,Cc1ccccc1C(=O)NCC1(N(C)C)CCCCC1,inactive: -15.4%
12,COc1cc(OC)cc(C(=O)NCC2(N3CCCCC3)CCCCC2)c1,inactive: -2.24%
13,CC(=O)N(c1ccccc1)C1CCNCC1,inactive: -2.15%
14,CN(C)C1(CNC(=O)c2ccc(C(C)(C)C)cc2)CCCCC1,inactive: -0.503%
15,Cc1ccc(NC2(C#N)CCN(Cc3ccccc3)CC2)cc1,inactive: -2.93%
16,Fc1ccccc1NC1CCN(Cc2ccccc2)CC1,inactive: -2.48%
17,Cc1ccc(C(=O)NCC2(N3CCCCC3)CCCCC2)o1,inactive: -3.13%
18,CCC(CO)(C(=O)OC1CN2CCC1CC2)c1ccccc1 (centres undefined),inactive: 6.16%
19,COc1cccc(C(=O)N(c2cc(C)cc(C)c2)C2CCN(C(=O)OC(C)(C)C)CC2)c1,inactive: -6.29%
20,COc1cc(OC)cc(C(=O)NCC2(N3CCOCC3)CCCCC2)c1,inactive: 3.28%
21,COc1cc(C(=O)NCC2(N3CCOCC3)CCCCC2)cc(OC)c1OC,inactive: -5.74%
22,CN1CCC(Nc2ccc(Cl)cc2)CC1,inactive: -5.05%
23,CN1CCC(Nc2ccc(F)c(Cl)c2)CC1,inactive: 2.69%

row,Structure (SMILES),"activity, negative = inhibition"
1,CCOc1ncccc1C(=O)NCC1(N2CCOCC2)CCCCC1,inactive: -12.2%
2,CCCOc1ccc(C(=O)NCC2(N(C)C)CCCCC2)cc1,inactive: -6.16%
3,O=C(O)C1(Nc2ccccc2)CCN(Cc2ccccc2)CC1,inactive: -5.46%
4,CC(C)(C)OC(=O)N1CCC(Nc2ccccc2)CC1,inactive: -4.22%
5,N/C(=N\O)c1c(N)no[n+]1[O-],inactive: -11.4%
6,CCOC(=O)N1CCC(Nc2ccc(C)cc2)CC1,inactive: -1.76%
7,O=C(OC1CN2CCC1CC2)C1c2ccccc2C=Cc2ccccc21 (centres undefined),inactive: -6.53%
8,CCc1cc(C(=O)NCC2(N3CCCCC3)CCCCC2)sc1C,inactive: -4.45%
9,O=C(NCC1(N2CCOCC2)CCCCC1)c1cc(Br)ccc1Cl,inactive: 2.12%
10,COc1cc(C(=O)NCC2(N3CCOCC3)CCCCC2)cc(OC)c1C,inactive: 3.63%
11,COc1ccc(C(=O)NCC2(N3CCOCC3)CCCCC2)cc1OC,inactive: -1.27%
12,Cc1cc(N(CCCl)CCCl)ccc1C=O,inactive: -0.956%
13,O=C(NCC1(N2CCOCC2)CCCCC1)c1ccccc1,inactive: -8.7%
14,c1ccc(CN2CCC(Nc3ccccc3)CC2)cc1,inactive: -4.59%
15,CN(C)C1(CNC(=O)c2cccc(C#N)c2)CCCCC1,inactive: -0.594%
16,CC(C)(C)OC(=O)N1CCC(N(C(=O)c2ccccc2)c2ccc(Cl)cc2)CC1,inactive: -3.94%
17,O=C(NCC1(N2CCOCC2)CCCCC1)c1ccc([N+](=O)[O-])cc1,inactive: -1.74%
18,O=C(NCC1(N2CCOCC2)CCCCC1)c1ccccc1[N+](=O)[O-],inactive: -5.94%
19,N#Cc1ccc(C(=O)NCC2(N3CCCCC3)CCCCC2)cc1,inactive: 9.71%
20,CCOC(=O)C(CC)C1=NC(C)(C)Cc2ccccc21.O=[N+]([O-])c1cc([N+](=O)[O-])c(O)c([N+](=O)[O-])c1 (centres undefined),inactive: 2.07%
